Laboratory results published in patent publication US10517864B2 (priority 2014, dated 2019).

Assay type: physicochemical
Conditions: for Buprenorphine HCl Solubility: room temperature
Experimental: Excess amount of buprenorphine or buprenorphine hydrochloride was weighed into a 1.8 cc HPLC vial containing about 0.5 g selected solvent. The vial was capped and placed on a jar mill rotating at 100 rpm at room temperature overnight. It was then centrifuged and part of top clear solution was weighed out and diluted in 1% acetic acid aqueous solution. Buprenorphine content in the solution was measured using the HPLC method described above.

Substance: Buprenorphine HCl
- Buprenorphine HCl Solubility (80/20 NMP/water (w/w)): 14.9 %, w/w
- Buprenorphine HCl Solubility (DMAC): 11.3 %, w/w
- Buprenorphine HCl Solubility (DMSO): 19.7 %, w/w
- buprenorphine hydrochloride solution that can be prepared (NMP, DMSO, or DMAC): more than 10 % by weight
- Buprenorphine HCl Solubility (NMP): 17.9 %, w/w

Where two headings read alike, the source gives them in different places.
